AlphaSeq binding of Ab-14 heavy chain variants to a spike HR2 peptide

The measurements come from Li et al. 2023 (doi:10.1038/s41467-023-39022-2) through the FLAb antibody collection.

Target peptide (SARS-CoV-2 spike, HR2 region): PDVDLGDISGINAS

Ab-14 is the parent antibody, in scFv form: VH, then a (GGGGS)3 linker, then VL. The light chain is unchanged in all variants.
VH: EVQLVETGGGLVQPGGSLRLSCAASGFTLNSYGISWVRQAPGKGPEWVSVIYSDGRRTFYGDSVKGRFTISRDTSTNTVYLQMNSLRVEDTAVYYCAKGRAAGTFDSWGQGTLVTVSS
VL: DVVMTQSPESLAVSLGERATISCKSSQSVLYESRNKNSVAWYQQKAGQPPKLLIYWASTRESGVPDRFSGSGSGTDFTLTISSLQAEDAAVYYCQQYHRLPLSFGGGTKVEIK

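The starting antibody came from a phage panning campaign against this peptide. The variants were designed computationally from a first round of random CDR variants and then made and measured. Group labels follow the data file (En: ensemble of fine-tuned language models; HC: hill climbing; Gen: genetic algorithm; Gibbs: Gibbs sampling; a sequence that several methods proposed may carry one label only). Affinity was read by AlphaSeq, a pooled yeast mating assay with surface-displayed partners. Pairs that bind mate more often; barcode pairs of the diploids are counted by sequencing. Read counts were normalised to the haploid input and turned into Kd by a linear fit to BCL2-family pairs of known affinity, for each replicate. Each pool was mated in six replicate cultures.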

Each variant's VH is given in full. This list holds designs with more than six substitutions. The Kd shown is the geometric mean over detected replicates; a lower Kd is a better binder. "no signal" means that the variant was in the library but no mating with the target was seen in any replicate; the authors take this as a sign of poor binding, and no number exists. The list is sorted by this average, lowest first, undetected variants last. The parent sequence was in this pool as ten entries: three were never detected, three once, and four in most replicates, with averages from 2.2 nM to 240 nM. The authors averaged sequences with at least three values out of six and counted those with two or fewer as poor binders. The range of this assay differs from that of the first round, and the authors advise against merging the two. Background: pairings of all heavy chain designs with three empty control strains gave a value in 1% of cases (median 120 nM, 5th percentile 7.0 nM). Values in that range, when seen in few replicates, are hard to tell from nonspecific mating.

VH,group,apparent Kd,seen in
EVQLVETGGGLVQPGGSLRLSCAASGFDLNEYGISWVRQAPGKGPEWVSVIYADGMRTFYSDSVKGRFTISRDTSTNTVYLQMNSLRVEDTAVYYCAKGNNAGTFDIWGQGTLVTVSS,En_Gen,220 pM,6 of 6
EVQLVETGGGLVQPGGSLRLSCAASGFDLNEYGISWVRQAPGKGPEWVSVIYADGRRTFYADSVKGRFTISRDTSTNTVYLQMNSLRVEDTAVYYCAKGNVAGTFDKWGQGTLVTVSS,En_HC,260 pM,6 of 6
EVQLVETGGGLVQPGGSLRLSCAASGFDLNEYGISWVRQAPGKGPEWVSVIYADGRRTFYQDSVKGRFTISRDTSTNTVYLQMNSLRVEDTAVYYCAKGQNAGTFDQWGQGTLVTVSS,En_HC,290 pM,6 of 6
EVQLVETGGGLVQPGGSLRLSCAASGFDLNEYGISWVRQAPGKGPEWVSVIYADGRRTFYADSVKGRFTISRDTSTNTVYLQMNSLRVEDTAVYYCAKGNAAGTFVNWGQGTLVTVSS,En_HC,400 pM,6 of 6
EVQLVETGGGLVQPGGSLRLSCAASGVNLDEYGISWVRQAPGKGPEWVSVIYADGVRQHYADSVKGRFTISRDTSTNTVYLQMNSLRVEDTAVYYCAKGMHGDFGVVWGQGTLVTVSS,En_Gibbs,460 pM,6 of 6
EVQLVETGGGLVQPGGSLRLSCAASGFDLNEYGISWVRQAPGKGPEWVSVIYADGMRTAYADSVKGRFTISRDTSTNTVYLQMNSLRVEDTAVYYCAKGQVAGTFDLWGQGTLVTVSS,En_Gen,490 pM,6 of 6
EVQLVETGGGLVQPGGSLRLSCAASGFDLNEYGISWVRQAPGKGPEWVSVIYADGRRTFYVDSVKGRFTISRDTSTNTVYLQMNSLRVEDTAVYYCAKGEVAGIFNVWGQGTLVTVSS,En_HC,520 pM,6 of 6
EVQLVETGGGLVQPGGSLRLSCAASGFDLNEYGISWVRQAPGKGPEWVSVIYADGVRTFYADSVKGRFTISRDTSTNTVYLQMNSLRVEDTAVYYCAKGNQAGTFISWGQGTLVTVSS,En_HC,720 pM,6 of 6
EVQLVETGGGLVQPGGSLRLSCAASGFDLNEYGISWVRQAPGKGPEWVSVIYADGKRTFYSDSVKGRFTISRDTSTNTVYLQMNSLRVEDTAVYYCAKGQLAGTFDVWGQGTLVTVSS,En_HC,1.1 nM,6 of 6
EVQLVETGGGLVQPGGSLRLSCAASGFDLNEYGISWVRQAPGKGPEWVSVIYADGQRTAYTDSVKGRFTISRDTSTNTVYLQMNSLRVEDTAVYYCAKGNEAGTFDVWGQGTLVTVSS,En_Gen,1.3 nM,1 of 6
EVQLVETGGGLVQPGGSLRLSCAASGFDLNEYGISWVRQAPGKGPEWVSVIYADGMRTFYADSVKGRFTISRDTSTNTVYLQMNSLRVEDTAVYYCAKGANAGTFDIWGQGTLVTVSS,En_Gen,1.3 nM,6 of 6
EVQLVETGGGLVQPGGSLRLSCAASGFDLNEYGISWVRQAPGKGPEWVSVIYADGKRTAYADSVKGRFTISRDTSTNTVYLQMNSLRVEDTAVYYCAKGGNAGTFDIWGQGTLVTVSS,En_Gen,1.7 nM,6 of 6
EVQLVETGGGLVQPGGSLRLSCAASGFGMEEYGISWVRQAPGKGPEWVSVIYADGQRNAYADEVKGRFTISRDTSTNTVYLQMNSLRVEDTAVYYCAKGENAGTFDIWGQGTLVTVSS,En_Gibbs,12 nM,6 of 6
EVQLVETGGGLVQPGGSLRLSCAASGFNIEEFGISWVRQAPGKGPEWVSVIYADGKRSSVSDSVKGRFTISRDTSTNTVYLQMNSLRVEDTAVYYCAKGQLGNAFDLWGQGTLVTVSS,En_Gibbs,320 nM,1 of 6
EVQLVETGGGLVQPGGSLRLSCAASGKQLDEYGISWVRQAPGKGPEWVSVIYADGKRTHYVENVKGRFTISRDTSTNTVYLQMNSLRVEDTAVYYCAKGQFGSALFDWGQGTLVTVSS,En_Gibbs,no signal,0 of 6
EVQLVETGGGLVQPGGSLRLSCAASGFDLNEYGISWVRQAPGKGPEWVSVIYADGLRKSYANSVKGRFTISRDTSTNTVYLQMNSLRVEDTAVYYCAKNGLRSDFFVWGQGTLVTVSS,En_Gibbs,no signal,0 of 6
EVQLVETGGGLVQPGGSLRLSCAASGFNINEYGISWVRQAPGKGPEWVSVIYADGTKTAYANTVKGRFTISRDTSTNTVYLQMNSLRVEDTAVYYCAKGKYVGTFVDWGQGTLVTVSS,En_Gibbs,no signal,0 of 6
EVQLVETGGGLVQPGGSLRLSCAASGFDINEYGISWVRQAPGKGPEWVSVIYADGNRTMYQDQVKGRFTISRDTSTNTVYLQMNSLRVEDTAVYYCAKGFNEGSFVIWGQGTLVTVSS,En_Gibbs,no signal,0 of 6
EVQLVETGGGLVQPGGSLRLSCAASGFDIEEYGISWVRQAPGKGPEWVSVIYADGVRTMYADDVKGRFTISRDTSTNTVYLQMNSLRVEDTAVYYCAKGNSKNYSLSWGQGTLVTVSS,En_Gibbs,no signal,0 of 6
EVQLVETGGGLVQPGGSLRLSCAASGFDLQEYGISWVRQAPGKGPEWVSVIYADGKRTKVTDNVKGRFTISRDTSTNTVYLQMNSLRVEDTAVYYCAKGQVTGTAFTWGQGTLVTVSS,En_Gibbs,no signal,0 of 6
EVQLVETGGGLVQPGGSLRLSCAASGFDLAEYGISWVRQAPGKGPEWVSVIYADGQRKSYANSFKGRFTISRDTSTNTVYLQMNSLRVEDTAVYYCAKGRLSGQNIMWGQGTLVTVSS,En_Gibbs,no signal,0 of 6

The opening 2 entries, copied out:

VH,group,apparent Kd,seen in
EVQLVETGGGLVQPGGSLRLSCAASGFDLNEYGISWVRQAPGKGPEWVSVIYADGMRTFYSDSVKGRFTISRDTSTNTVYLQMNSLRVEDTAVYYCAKGNNAGTFDIWGQGTLVTVSS,En_Gen,220 pM,6 of 6
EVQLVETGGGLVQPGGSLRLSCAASGFDLNEYGISWVRQAPGKGPEWVSVIYADGRRTFYADSVKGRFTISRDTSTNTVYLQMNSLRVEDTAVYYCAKGNVAGTFDKWGQGTLVTVSS,En_HC,260 pM,6 of 6